Measured affinities in a library of Ab-14 light chain variants

Values reported by Li et al. 2023, doi:10.1038/s41467-023-39022-2 (FLAb copy).

Target: peptide PDVDLGDISGINAS, taken from heptad repeat 2 (HR2) of SARS-CoV-2 spike.

Parent: Ab-14, a human scFv built as VH, the linker GGGGSGGGGSGGGGS, VL. Only the CDRs of the light chain vary.
VH: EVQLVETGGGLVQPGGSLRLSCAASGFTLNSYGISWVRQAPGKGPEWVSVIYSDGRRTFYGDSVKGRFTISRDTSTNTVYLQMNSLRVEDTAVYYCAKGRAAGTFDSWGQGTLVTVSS
VL: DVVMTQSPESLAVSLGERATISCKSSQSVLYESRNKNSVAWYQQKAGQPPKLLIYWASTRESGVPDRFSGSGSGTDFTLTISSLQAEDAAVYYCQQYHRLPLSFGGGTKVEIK

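The variants were designed computationally from a first round of random CDR variants and then made and measured. Group labels follow the data file (Ctrl: baseline library sampled from a position-specific scoring matrix, with some repeated check sequences; Rand: our label for a block that the file lists under HC and that is probably the random mutants of the ten best first-round binders; GP: Gaussian process model; HC: hill climbing; Gen: genetic algorithm; Gibbs: Gibbs sampling; a sequence that several methods proposed may carry one label only). In AlphaSeq, yeast of one mating type display the scFv and yeast of the other type display the target. Pairs that bind mate more often; barcode pairs of the diploids are counted by sequencing. The ratio of observed to expected reads was calibrated, replicate by replicate, on BCL2-family standards whose Kd was known from biolayer interferometry. There are six technical replicates.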

Positions count from residue 1 of the parent VL; S25I puts I in place of S.
Variants here have at most six changes.
Values are log10 of the apparent Kd in nM; lower means stronger binding.
The mean shown is taken over the replicates in which the pair was detected.
Where no diploid with the target was found in any replicate, the entry reads "nd": below detection, most likely a poor binder, though not proof of it.
The list is sorted by this average, lowest first, undetected variants last.
Of ten entries with the parent sequence, four were seen in most replicates (averages 0.34 to 2.37), three in one and three in none, so single entries are noisy.
The authors averaged sequences with at least three values out of six and counted those with two or fewer as poor binders.
Three control strains display no target. For all light chain designs, 4% of the pairings with them gave a signal, with a median of 2.64 and one signal in twenty below 1.59, so weak values seen in few replicates may be background.
A sequence measured in both rounds can read differently, since the two assays cover different ranges.

S25I+V29E+W56G [GP_Gen]: -0.45 (6 of 6 replicates).
S25L+W56N+E61M [GP_Gen]: -0.43 (6 of 6 replicates).
S25V+V29Q+W56E+T59Q [GP_Gen]: -0.43 (6 of 6 replicates).
S25L+W56E+Q96S [GP_Gen]: -0.38 (6 of 6 replicates).
S25L+W56N+S62D [GP_Gen]: -0.38 (6 of 6 replicates).
S25L+Q27F+Y31F+W56N [GP_HC]: -0.37 (6 of 6 replicates).
K24H+Q27P+L30Y+W56N+S103Q [GP_HC]: -0.29 (6 of 6 replicates).
S25L+Q27W+V29E+W56G [GP_Gen]: -0.27 (6 of 6 replicates).
S25V+V29F+W56G+P101T [GP_HC]: -0.24 (6 of 6 replicates).
S25L+S26E+V29Q+W56N+T59Q+E61L [GP_Gen]: -0.21 (6 of 6 replicates).
S25E+W56G [GP_HC]: -0.20 (6 of 6 replicates).
S25L+V29E+W56N+T59K [GP_Gen]: -0.14 (6 of 6 replicates).
S25F+V29E+W56N+T59Q+S62Q [GP_Gen]: -0.11 (6 of 6 replicates).
S25Q+W56D+A57G+S103D [GP_HC]: -0.10 (6 of 6 replicates).
S25L+N35Q+W56N+E61S [GP_Gen]: -0.08 (6 of 6 replicates).
L30E+Y31M+W56D [GP_HC]: 0.01 (6 of 6 replicates).
S25L+V29Y+S33E+W56N [GP_Gen]: 0.01 (6 of 6 replicates).
Q27P+R34M+W56N+E61M [GP_HC]: 0.03 (6 of 6 replicates).
Q27V+V29Y+Y31E+W56E [GP_HC]: 0.08 (6 of 6 replicates).
S25I+S26Q+L30Y+S33D+W56S+E61C [GP_Gibbs]: 0.09 (6 of 6 replicates).
S25F+L30A+N35T+W56D [GP_HC]: 0.10 (6 of 6 replicates).
S25F+N35M+W56D+E61C [GP_HC]: 0.11 (6 of 6 replicates).
S25L+R34T+K36S+N37Q+W56D+E61Y [GP_Gibbs]: 0.16 (6 of 6 replicates).
S26G+S28G+L30D+S38H+W56G [GP_HC]: 0.17 (6 of 6 replicates).
S25L+N37Q+W56A [Ctrl]: 0.18 (6 of 6 replicates).
S25L+S26Q+L30D+W56D [GP_Gen]: 0.18 (6 of 6 replicates).
S25L+V29F+K36V+W56G+E61D [GP_HC]: 0.20 (6 of 6 replicates).
S25L+S26K+V29Q+W56N [GP_Gen]: 0.30 (6 of 6 replicates).
S25L+S26P+L30E+W56E [GP_Gen]: 0.33 (6 of 6 replicates).
S25L+N35M+W56N+S62D [GP_Gen]: 0.33 (6 of 6 replicates).
Y31K [Ctrl]: 0.33 (6 of 6 replicates).
S25L+W56G+E61M [GP_Gen]: 0.36 (6 of 6 replicates).
V29E+Y31F+W56N [GP_HC]: 0.36 (6 of 6 replicates).
Q27W+R34G+W56D+S62D [GP_HC]: 0.36 (6 of 6 replicates).
S25V+N35H+W56N [GP_HC]: 0.41 (6 of 6 replicates).
L30D+R34V+W56N [Ctrl]: 0.45 (6 of 6 replicates).
S25L+S26E+V29C+W56N+T59Q [GP_Gen]: 0.48 (6 of 6 replicates).
K24V+Q27Y+S33D+R34T+W56D [Ctrl]: 0.53 (6 of 6 replicates).
S26L+W56H+S62D+L100I [Rand]: 0.55 (6 of 6 replicates).
S25L+V29T+W56N+T59Q+E61L [GP_Gen]: 0.57 (6 of 6 replicates).
Q27W+R34N+K36V+W56N+S62D [GP_HC]: 0.62 (6 of 6 replicates).
S25M+Q27I+V29Y+Y31G+S33K+W56E [GP_HC]: 0.64 (6 of 6 replicates).
S25L+V29Q+W56Q+Q96D [GP_Gen]: 0.71 (6 of 6 replicates).
S28I+W56S [Ctrl]: 1.07 (6 of 6 replicates).
S25I+S28K+W56G [GP_HC]: 1.09 (6 of 6 replicates).
W56S+P101E+S103L [Ctrl]: 1.15 (6 of 6 replicates).
S25Q+W56M+T59Q [GP_HC]: 1.22 (6 of 6 replicates).
S25V+V29W+K36F+N37W+W56G [GP_HC]: 1.77 (5 of 6 replicates).
S25V+S28G+S33E+K36M+R60H+S103T [Ctrl]: 1.99 (4 of 6 replicates).
S25P+N37C+A40M+W56D [Rand]: nd (0 of 6 replicates).
L30W+V39G+E61R [Ctrl]: nd (0 of 6 replicates).

A selection of 3 entries from above:

{"changes": "S25I+S28K+W56G", "group": "GP_HC", "mean log10 Kd (nM)": "1.09", "seen in": "6 of 6"}
{"changes": "S25L+N37Q+W56A", "group": "Ctrl", "mean log10 Kd (nM)": "0.18", "seen in": "6 of 6"}
{"changes": "S28I+W56S", "group": "Ctrl", "mean log10 Kd (nM)": "1.07", "seen in": "6 of 6"}